Laboratory results taken from patent US11530229B2, “Cyano cyclobutyl compounds for CBL-B inhibition and uses thereof” (Nurix Therapeutics, Inc., priority 2019, dated 2022).

What was measured:
[1] = tested on: primary human total T-cells; assay: T-cell activation, CD25 surface staining, Biological Example 9; format: cell-based; conditions: 48 hours, fold change over baseline, Table 5; for CD25 staining CD3 1 μM / CD25 staining CD3 3 μM: anti-CD3 stimulation alone; for CD25 staining CD3 1 μM / CD25 staining CD3/CD28 1 μM: 1 μM inhibitor; for CD25 staining CD3 3 μM: 3 μM inhibitor; for CD25 staining CD3/CD28 0.3 μM / CD25 staining CD3/CD28 1 μM: anti-CD3 and anti-CD28 co-stimulation; for CD25 staining CD3/CD28 0.3 μM: 0.3 μM inhibitor
[2] = tested on: primary human total T-cells; assay: T-cell activation, CD25 surface staining, Biological Example 13; format: cell-based; conditions: 48 hours, fold change over baseline, Table 8; for CD25 staining CD3 1 μM / CD25 staining CD3 3 μM: anti-CD3 stimulation alone; for CD25 staining CD3 1 μM / CD25 staining CD3/CD28 1 μM: 1 μM inhibitor; for CD25 staining CD3 3 μM: 3 μM inhibitor; for CD25 staining CD3/CD28 0.3 μM / CD25 staining CD3/CD28 1 μM: anti-CD3 and anti-CD28 co-stimulation; for CD25 staining CD3/CD28 0.3 μM: 0.3 μM inhibitor

For `Cc1cc(C(=O)Nc2cccc([C@]3(Cc4nncn4C)C[C@@H](C#N)C3)c2)nc(C2CC2)n1` [Compound 1, N-(3-((1r,3r)-3-cyano-1-((4-methyl-4H-1,2,4-triazol-3-yl)methyl)cyclobutyl)phenyl)-2-cyclopropyl-6-methylpyrimidine-4-carboxamide], which “CD25 staining CD3 1 μM” value [1] is on record?
The value was “A (A indicates >1.14 fold)”.

And the “CD25 staining CD3 3 μM” value [1]?
Its value is “A (A indicates >1.14 fold)”.

And the “CD25 staining CD3 1 μM” value [2]?
Its value is “A (A indicates >1.14 fold)”.

What about the “CD25 staining CD3 3 μM” value [2] of the same molecule?
Its value is “A (A indicates >1.14 fold)”.

Which “CD25 staining CD3/CD28 0.3 μM” value [1] does the source give for `Cn1cnnc1C[C@]1(c2cccc(N3Cc4c(cc(CN5CCC6(CC6)C5)cc4C(F)(F)F)C3=O)c2)C[C@H](C#N)C1` [Compound 4, (1r,3r)-3-(3-(6-((5-azaspiro[2.4]heptan-5-yl)methyl)-1-oxo-4-(trifluoromethyl)isoindolin-2-yl)phenyl)-3-((4-methyl-4H-1,2,4-triazol-3-yl)methyl)cyclobutane-1-carbonitrile] here?
The value was “A (A indicates >1.39 fold)”.

And the “CD25 staining CD3/CD28 1 μM” value [1]?
Its value is “A (A indicates >1.39 fold)”.

What about the “CD25 staining CD3 1 μM” value [1] of the same molecule?
The value was “A (A indicates >1.14 fold)”.

And the “CD25 staining CD3 3 μM” value [1]?
The value was “A (A indicates >1.14 fold)”.

What about the “CD25 staining CD3/CD28 0.3 μM” value [2] of the same molecule?
Its value is “A (A indicates >1.39 fold)”.

And the “CD25 staining CD3/CD28 1 μM” value [2]?
Its value is “A (A indicates >1.39 fold)”.

What about the “CD25 staining CD3 1 μM” value [2] of the same molecule?
The value was “A (A indicates >1.14 fold)”.

What about the “CD25 staining CD3 3 μM” value [2] of the same molecule?
The value was “A (A indicates >1.14 fold)”.

How did the “CD25 staining CD3/CD28 0.3 μM” value [1] turn out when `C[C@@H]1CN(Cc2cc3c(c(C(F)(F)F)c2)CN(c2cccc([C@]4(Cc5nncn5C)C[C@@H](C#N)C4)c2)C3=O)CCC1(F)F` [Compound 11, (1R,3r)-3-(3-(6-(((R)-4,4-difluoro-3-methylpiperidin-1-yl)methyl)-1-oxo-4-(trifluoromethyl)isoindolin-2-yl)phenyl)-3-((4-methyl-4H-1,2,4-triazol-3-yl)methyl)cyclobutane-1-carbonitrile] was run?
The value was “A (A indicates >1.39 fold)”.

What about the “CD25 staining CD3/CD28 1 μM” value [1] of the same molecule?
Its value is “A (A indicates >1.39 fold)”.

What about the “CD25 staining CD3 1 μM” value [1] of the same molecule?
Its value is “A (A indicates >1.14 fold)”.

What about the “CD25 staining CD3 3 μM” value [1] of the same molecule?
The value was “A (A indicates >1.14 fold)”.

What about the “CD25 staining CD3/CD28 0.3 μM” value [2] of the same molecule?
The value was “A (A indicates >1.39 fold)”.

And the “CD25 staining CD3/CD28 1 μM” value [2]?
Its value is “A (A indicates >1.39 fold)”.

And the “CD25 staining CD3 1 μM” value [2]?
Its value is “A (A indicates >1.14 fold)”.

What about the “CD25 staining CD3 3 μM” value [2] of the same molecule?
Its value is “A (A indicates >1.14 fold)”.

With `C[C@H]1CCCN(Cc2cc3c(c(C(F)(F)F)c2)CN(c2cccc([C@]4(Cc5nncn5C)C[C@@H](C#N)C4)c2)C3=O)C1` [Compound 19, (1R,3r)-3-((4-methyl-4H-1,2,4-triazol-3-yl)methyl)-3-(3-(6-(((S)-3-methylpiperidin-1-yl)methyl)-1-oxo-4-(trifluoromethyl)isoindolin-2-yl)phenyl)cyclobutane-1-carbonitrile] as the molecule, how does the “CD25 staining CD3/CD28 0.3 μM” value [1] read?
The value was “A (A indicates >1.39 fold)”.

What about the “CD25 staining CD3/CD28 1 μM” value [1] of the same molecule?
The value was “A (A indicates >1.39 fold)”.

And the “CD25 staining CD3 1 μM” value [1]?
The value was “A (A indicates >1.14 fold)”.

What about the “CD25 staining CD3 3 μM” value [1] of the same molecule?
Its value is “A (A indicates >1.14 fold)”.

What about the “CD25 staining CD3/CD28 0.3 μM” value [2] of the same molecule?
The value was “A (A indicates >1.39 fold)”.

And the “CD25 staining CD3/CD28 1 μM” value [2]?
Its value is “A (A indicates >1.39 fold)”.

What about the “CD25 staining CD3 1 μM” value [2] of the same molecule?
The value was “A (A indicates >1.14 fold)”.

And the “CD25 staining CD3 3 μM” value [2]?
Its value is “A (A indicates >1.14 fold)”.

What does the source list for `Cn1cnnc1C[C@]1(c2cccc(N3Cc4c(cc(CN[C@H]5CCC(F)(F)C5)cc4C(F)(F)F)C3=O)c2)C[C@H](C#N)C1` [Compound 20, (1R3r)-3-(3-(6-((((S)-3,3-difluorocyclopentyl)amino)methyl)-1-oxo-4-(trifluoromethyl)isoindolin-2-yl)phenyl)-3-((4-methyl-4H-1,2,4-triazol-3-yl)methyl)cyclobutane-1-carbonitrile]?
CD25 staining CD3/CD28 0.3 μM [1]: A (A indicates >1.39 fold); CD25 staining CD3/CD28 1 μM [1]: A (A indicates >1.39 fold); CD25 staining CD3 1 μM [1]: A (A indicates >1.14 fold); CD25 staining CD3 3 μM [1]: A (A indicates >1.14 fold); CD25 staining CD3/CD28 0.3 μM [2]: A (A indicates >1.39 fold); CD25 staining CD3/CD28 1 μM [2]: A (A indicates >1.39 fold); CD25 staining CD3 1 μM [2]: A (A indicates >1.14 fold); CD25 staining CD3 3 μM [2]: A (A indicates >1.14 fold)

Which results are given for `Cn1cnnc1C[C@]1(c2cccc(N3Cc4c(cc(CN[C@@H]5CCC(F)(F)C5)cc4C(F)(F)F)C3=O)c2)C[C@H](C#N)C1` [Compound 21, (1R,3r)-3-(3-(6-((((R)-3,3-difluorocyclopentyl)amino)methyl)-1-oxo-4-(trifluoromethyl)isoindolin-2-yl)phenyl)-3-((4-methyl-4H-1,2,4-triazol-3-yl)methyl)cyclobutane-1-carbonitrile]?
CD25 staining CD3/CD28 0.3 μM [1]: A (A indicates >1.39 fold); CD25 staining CD3/CD28 1 μM [1]: A (A indicates >1.39 fold); CD25 staining CD3 1 μM [1]: A (A indicates >1.14 fold); CD25 staining CD3 3 μM [1]: A (A indicates >1.14 fold); CD25 staining CD3/CD28 0.3 μM [2]: A (A indicates >1.39 fold); CD25 staining CD3/CD28 1 μM [2]: A (A indicates >1.39 fold); CD25 staining CD3 1 μM [2]: A (A indicates >1.14 fold); CD25 staining CD3 3 μM [2]: A (A indicates >1.14 fold)

Which “CD25 staining CD3/CD28 0.3 μM” value [1] does the source give for `C[C@@H]1CN(Cc2cc(C(=O)Nc3cccc([C@]4(Cc5nncn5C)C[C@@H](C#N)C4)c3)nc(C3CC3)c2)CCO1` [Compound 56, N-(3-((1r,3R)-3-cyano-1-((4-methyl-4H-1,2,4-triazol-3-yl)methyl)cyclobutyl)phenyl)-6-cyclopropyl-4-(((R)-2-methylmorpholino)methyl)picolinamide] here?
Its value is “A (A indicates >1.39 fold)”.

What about the “CD25 staining CD3/CD28 1 μM” value [1] of the same molecule?
Its value is “A (A indicates >1.39 fold)”.

What about the “CD25 staining CD3 1 μM” value [1] of the same molecule?
Its value is “A (A indicates >1.14 fold)”.

What about the “CD25 staining CD3 3 μM” value [1] of the same molecule?
Its value is “A (A indicates >1.14 fold)”.

What about the “CD25 staining CD3/CD28 0.3 μM” value [2] of the same molecule?
Its value is “A (A indicates >1.39 fold)”.

What about the “CD25 staining CD3/CD28 1 μM” value [2] of the same molecule?
The value was “A (A indicates >1.39 fold)”.

And the “CD25 staining CD3 1 μM” value [2]?
Its value is “A (A indicates >1.14 fold)”.

And the “CD25 staining CD3 3 μM” value [2]?
The value was “A (A indicates >1.14 fold)”.
